Tested on: collagen antibody and lipopolysaccharide-induced arthritis (CAIA)
Test: Collagen antibody-induced mouse arthritis model (Experimental Example 4)
Assay type: in vivo, BALB/c mice
Settings: Day3; Mean; 20 mg/kg oral twice a day
Procedure: Experimental animals: BALB/c mice, male, 6-8 weeks, 18-20 g; supplier: Beijing Vital River Laboratory Animal Technology Co., Ltd. 1. […] 2. Administration: Table 4. Administration groups and administration schemes [table] The data were analyzed by One-way ANOVA/Dunnett's using Graphpad Prism and by Repeat Measurement ANOVA/Bonferroni using SPSS. P< 0.05 was considered to indicate a significant difference. Arthritis scoring: Starting from the day of modeling, the incidence of arthritis in the limbs of the animals in each group was observed three times a week until the end of the experiment. According to the different degrees of lesions (erythema and swelling), the scoring was carried out according to the standard of 0-4 points. […] Joint swelling: Starting from the day of modeling, the thickness of the left and right foot pads of the animals was measured three times a week using a micrometer (Mitutoyo, 0-25 mm, minimal 0.001 mm) until the end of the experiment.

Structure (SMILES): CCO[C@H]1CCN(Cc2c(OC)cc(C)c3[nH]ccc23)[C@H](c2ccc(C(=O)O)cc2)C1 [LNP023, reference compound]
- Thickness of foot pads (mm): 1.614 mm

Reference: patent publication EP4650351A1, “INHIBITOR OF COMPLEMENT FACTOR B” (Nanjing Chia Tai Tianqing Pharmaceutical Co., Ltd., priority 2023, dated 2024)
